Binding of CDR-mutated scFvs to a peptide of the spike HR2 region

The measurements come from Engelhart et al. 2022 (doi:10.1038/s41597-022-01779-4) through the FLAb antibody collection.

All variants were tested on one target, the spike HR2 peptide PDVDLGDISGINAS (SARS-CoV-2).

Ab-14 is the parent antibody, in scFv form: VH, then the linker GGGGSGGGGSGGGGS, then VL. The light chain is unchanged in all variants.
VH: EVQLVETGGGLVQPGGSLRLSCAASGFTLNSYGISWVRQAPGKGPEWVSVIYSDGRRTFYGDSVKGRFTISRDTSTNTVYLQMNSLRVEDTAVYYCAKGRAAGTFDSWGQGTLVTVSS
VL: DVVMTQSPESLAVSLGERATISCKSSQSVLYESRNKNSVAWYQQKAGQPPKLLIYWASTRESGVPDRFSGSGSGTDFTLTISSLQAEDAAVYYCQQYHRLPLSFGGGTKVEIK

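The library (AAYL49) carries one to three amino acid substitutions per variant, with no insertions or deletions. The assay is AlphaSeq: two haploid yeast populations carry antibody and antigen on their surface. Binding brings cells together so that they mate, and sequencing counts the barcode pairs among the diploids. A regression on co-assayed BCL2-family reference pairs converts the normalised counts of each replicate to an apparent Kd. Each pool was mated in three replicate cultures.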

The parent's heavy chain CDRs are GFTLNSYGIS, VIYSDGRRTFYGDSVK, GRAAGTFDS; each variant's own CDRs replace them letter for letter.
The read-out is the apparent dissociation constant on a log10 scale (nM): the lower, the stronger.
Replicates are averaged; those with no signal do not enter the mean.
"nd" means that the variant was in the library but no mating with the target was seen in that replicate; the authors take this as a sign of poor binding, and no number exists.

CDR-H1,CDR-H2,CDR-H3,"log10 Kd, replicates","log10 Kd (nM), mean",empty controls
GFTFNSYGIS,VIYSDGRRTFYGDSLK,DRAAGTFDS,nd nd nd,nd,0/9
GFTLNSYGIS,VIYSDGRRTFYTDSVK,GRAAGKFDS,1.48 1.25 0.97,1.23,0/9
GFELNFYGIS,VIYSDGRRTFYGDSVK,GRNAGTFDS,0.95 0.88 0.75,0.86,1/9 (4.74)
GFTLNSYGIS,VIYSDRRRTFYGASVK,GDAAGTFDS,nd nd nd,nd,0/9
GFTLNCYGIS,IIYSDGRRTFYGDSVK,GRAAGTFDS,2.36 2.18 2.16,2.23,4/9 (4.08)
GFTLNSYGIS,VIYSDGRRTFYGHSVK,GRACGTKDS,nd nd nd,nd,0/9
GFTLNSYGIS,VSYSDGRRTFYGDSSK,GRAAFTFDS,4.08 4.16 4.76,4.33,3/9 (3.80)
GFTLNSYGIS,VIYSDGRRTFYGDSVK,GRAASTFDS,0.50 1.18 1.20,0.96,0/9
GFTTNSYEIS,VIYSDGRRTFYGQSVK,GRAAGTFDS,nd nd nd,nd,0/9
GFTLNSYGIS,SIYSDGRRTFYGDSFK,GRAAGTFES,nd nd nd,nd,0/9
GFTLFSYGIS,VIYSDIHRTFYGDSVK,GRAAGTFDS,nd nd nd,nd,0/9
GFPLNSYGIR,VIYSDGRRTFYGDSVK,GRAWGTFDS,4.24 4.47 3.88,4.20,5/9 (4.27)
GFTLNQYQIS,VIYSDGRRTFYGDSVK,GRAAGTFDS,nd 5.42 nd,5.42,0/9
LFTLNSYGIS,VIYPDGRRTFQGDSVK,GRAAGTFDS,nd nd nd,nd,1/9 (2.43)
HFTLHSYGIS,VIYSDGRRTFYGDSVK,GRAAGAFDS,nd 3.48 nd,3.48,0/9
VFTLNQYGIS,VIYSDGRRTFYGDSVK,GRAAGTPDS,4.33 2.55 4.01,3.63,2/9 (3.98)
GFTLNSYNIS,VIYSDGRRTFYGDSCK,GRAACTFDS,4.94 5.69 5.01,5.21,3/9 (5.07)
PWTLNSYGIS,VIYSDGRRTFYGDSVK,GRAAGFFDS,nd 2.99 nd,2.99,1/9 (2.93)
GFTLNSYGIS,VDYSDGRRTFYGDSVK,GRAAGTFDC,nd nd 3.58,3.58,2/9 (4.07)
GFTLNSYGIS,AIYSDGRRTFYGDSVK,GRAAGFQDS,nd nd nd,nd,6/9 (4.74)
GFTLNSYGIS,VIYSDQRRTVYGDQVK,GRAAGTFDS,nd 4.53 nd,4.53,0/9
GTTLNSYGIS,VIYYDGRRTFYGDSVK,GRAAGTRDS,nd nd nd,nd,3/9 (3.76)
GFCMNSYGIS,VIYSDVRRTFYGDSVK,GRAAGTFDS,nd 4.66 4.25,4.45,2/9 (4.15)
GFTLNSYAIS,VIYSDWRWTFYGDSVK,GRAAGTFDS,nd nd nd,nd,0/9
GFTLNSYIIS,VIYSDGRRTFYTDSVK,GRAAGTFDS,nd nd 4.91,4.91,1/9 (3.18)
GFTLRSYGIS,CIYSDGRRTFYGDSVK,GKAAGTFDS,nd nd nd,nd,2/9 (3.93)
GFNLNSYGIS,VIYSDGRRDFYGDSVK,GRAAGTFDQ,2.12 2.25 2.40,2.26,4/9 (4.28)
GFTLNSYGIT,VIYSDGRRTFYGDSVK,GRAAWTFWS,nd nd nd,nd,1/9 (2.39)
GFTLNSYGIS,VIYIDGRRTFYGDSVK,GRAAGTFVS,nd nd nd,nd,1/9 (3.06)
GFTMNSYGIS,VIYSQGRDTFYGDSVK,GRAAGTFDS,nd 4.07 nd,4.07,1/9 (3.55)
GFTLNSYGIS,VIYMEGRRTFYGDSVK,GRAAGTWDS,nd nd nd,nd,2/9 (3.28)
GFTLNSTGIS,VIYSDGRWTFYGDSAK,GRAAGTFDS,nd nd nd,nd,0/9
GFTLNSAGII,VIYSDGRVTFYGDSVK,GRAAGTFDS,nd 3.72 4.97,4.35,0/9
GFLLHSYGIS,VIYSDGRRTFAGDSVK,GRAAGTFDS,6.58 3.77 nd,5.18,6/9 (4.07)
GFTLNSYGIM,VIYSDGRNTFYGDSVK,GRASGTFDS,nd nd nd,nd,1/9 (2.22)
GFTLNSYGIS,VIYSDGRITFYRDSKK,GRAAGTFDS,nd 4.04 nd,4.04,1/9 (3.26)
GFTLNSYGIS,VIKSDGLRTFYGDSVK,GRAPGTFDS,nd nd nd,nd,1/9 (3.35)

The opening 4 entries, copied out:

CDR-H1,CDR-H2,CDR-H3,"log10 Kd, replicates","log10 Kd (nM), mean",empty controls
GFTFNSYGIS,VIYSDGRRTFYGDSLK,DRAAGTFDS,nd nd nd,nd,0/9
GFTLNSYGIS,VIYSDGRRTFYTDSVK,GRAAGKFDS,1.48 1.25 0.97,1.23,0/9
GFELNFYGIS,VIYSDGRRTFYGDSVK,GRNAGTFDS,0.95 0.88 0.75,0.86,1/9 (4.74)
GFTLNSYGIS,VIYSDRRRTFYGASVK,GDAAGTFDS,nd nd nd,nd,0/9

Background: pairings of library AAYL49 with three empty control strains gave a value in 15% of cases (median 4.06, 5th percentile 2.83). Values in that range, when seen in few replicates, are hard to tell from nonspecific mating. Also given: how often the same scFv was detected with the empty control strains, with their mean in brackets.